# In paper PMC10609720, “Antiviral Activity of Flavonoids from Geopropolis of the Brazilian Jandaira Bee against Zika and Dengue Viruses” (Pharmaceutics, 2023):
# Tested on: DENV-2
# Assay: Post-treatment antiviral assay, viral titration by TCID50, DENV-infected Vero cells
# Assay type: cell-based
# Conditions: treatment at CC20, microscopy, Figure 5B,C
# Method: One day prior to infection with the ZIKV or DENV strain, Vero cells were seeded in 24-well plates (5 × 10^4 cells/well). The infection was performed at the multiplicity of infection (MOI) of 0.1 for 2 h at 37 °C in 5% CO2. After virus internalization, the inoculum was removed, and the cells were washed using the growth medium. […] 6-MMPr, used as positive control drug, was also included as a drug treatment in some wells [33]. Controls of mock (non-infected) and infected non-treated cells were included. At 120 h post-infection (hpi), the cytopathic effect was evaluated using an inverted microscope (AE2000 binocular microscope, Motic, Hong Kong), and cells were photographed with a smartphone. The cell supernatant was harvested at 120 hpi and stored at −80 °C for posterior virus titration, using the TCID50 method.
# The TCID50 method was used here to perform viral titration. The titer values were expressed as log10 TCID50/mL. One day prior to titration, Vero cells were seeded in a 96-well plate (1 × 10^4 cells/well) at 37 °C in a 5% CO2 incubator. […]
# The differences in viral titer of treated and untreated infected cells were analyzed according to ANOVA followed by the Dunnett test using GraphPad Prism software v.5.01 (GraphPad Software, La Jolla, CA, USA). […] The CC50 and CC20 values were also calculated using GraphPad Prism software in a non-linear regression interpretation. […]
structure (smiles),measurement,value
O=C1C[C@@H](c2ccc(O)cc2)Oc2cc(O)cc(O)c21 [Naringenin],DENV-induced cytopathic effect in Vero cell monolayers,prevented morphological modifications
